One compound from EP0418591B1 (priority 1989, dated 1991) can be followed below.

This data set relates to morphine stimulus. Kind of data set: Discriminative stimulus assay (morphine vs water, two-lever operant test). The following applies: 3.0 mg/kg s.c. training dose, 30 min before session.

Structures are written as SMILES.

On to `CN1CC[C@]23c4c5ccc(O)c4O[C@H]2[C@@H](O)C=C[C@H]3[C@H]1C5`, for which the “Mean Percent Morphine-Lever Responding” value (lower part of the table ((+)-Etorphine series)) worked out at 100.00% and the “Mean Percent Morphine-Lever Responding” value (upper part of the table ((-)-Etorphine series)) came out at 99.96%.
